Source: patent US20230014907A1, “INHIBITORS OF APOL1 AND METHODS OF USING SAME” (Vertex Pharmaceuticals Incorporated, priority 2020, published 2023)

Chains of the proteins cited; added tags and fusions are not shown. Residues count along the entry.
UniProt O14791, 28-398 S342G/I384M limits assumed: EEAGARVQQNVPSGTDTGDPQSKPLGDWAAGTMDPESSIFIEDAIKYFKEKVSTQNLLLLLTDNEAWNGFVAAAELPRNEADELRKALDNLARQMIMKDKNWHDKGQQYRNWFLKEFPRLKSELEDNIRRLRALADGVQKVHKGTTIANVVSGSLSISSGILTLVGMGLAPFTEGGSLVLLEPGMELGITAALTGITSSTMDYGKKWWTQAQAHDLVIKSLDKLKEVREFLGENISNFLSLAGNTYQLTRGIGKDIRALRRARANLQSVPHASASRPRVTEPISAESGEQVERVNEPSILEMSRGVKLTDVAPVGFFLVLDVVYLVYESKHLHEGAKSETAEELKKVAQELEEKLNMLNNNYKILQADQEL

Molecular target: G1 APOL1 (Homo sapiens, UniProt O14791, I384M/S342G)
Assay: Acute APOL1 Thallium Assay with Inducible Stable Clones of HEK 293 Cells
Conditions: read-out: Thallium Assay (IC50), HEK 293 inducible stable clones
From the text: Acute APOL1 Thallium Assay with Inducible Stable Clones of HEK 293 Cells
Apolipoprotein L1 (APOL1) proteins form potassium-permeable cation pores in the plasma membrane. APOL1 risk variants (G1 and G2) induce greater potassium flux than G0 in HEK293 cells. This assay exploits the permeability of thallium (Tl+) through ligand-gated potassium channels. The dye produces a bright fluorescent signal upon binding to Tl+ conducted through potassium channels. The intensity of the Tl+ signal is proportional to the number of potassium channels in the open state. Therefore, it provides a functional indication of the potassium channel activities. During the initial dye-loading step, the Tl+ indicator dye as an acetoxymethyl (AM) ester enters the cells through passive diffusion. […] The increase of fluorescence in the assay represents the influx of Tl+ into the cell specifically through the potassium channel (i.e. through APOL1 pores), providing a functional measurement of potassium channel/pore activity. […]
Preparation of Cell Assay Plates • Culture medium is removed from the x cm^2 T-flask by aspiration. • The cell monolayer is rinsed with PBS 1× at room temperature. […] Cell suspension is then transferred to a 50 mL Falcon polypropylene tube. • Cells are then counted using a BioRad TC10 cell counter and the required amount of cells are centrifuged at 1200 RPM for 5 minutes. […]

Question: `O=C(CCc1c(-c2ccccc2)[nH]c2c(C3CC3)cccc12)NC1=CCNC1=O` was tested. Which IC50 did it give?
Answer: > 1000 nM
